From ChEMBL document CHEMBL3616458, “Synthesis of chiral ND-322, ND-364 and ND-364 derivatives as selective inhibitors of human gelatinase” (Bioorg Med Chem, 2015)

Amino acid sequences for entries named in this document (tags omitted). A change or cut given only in a name is not applied to a line headed by its entry.
UniProt P14780: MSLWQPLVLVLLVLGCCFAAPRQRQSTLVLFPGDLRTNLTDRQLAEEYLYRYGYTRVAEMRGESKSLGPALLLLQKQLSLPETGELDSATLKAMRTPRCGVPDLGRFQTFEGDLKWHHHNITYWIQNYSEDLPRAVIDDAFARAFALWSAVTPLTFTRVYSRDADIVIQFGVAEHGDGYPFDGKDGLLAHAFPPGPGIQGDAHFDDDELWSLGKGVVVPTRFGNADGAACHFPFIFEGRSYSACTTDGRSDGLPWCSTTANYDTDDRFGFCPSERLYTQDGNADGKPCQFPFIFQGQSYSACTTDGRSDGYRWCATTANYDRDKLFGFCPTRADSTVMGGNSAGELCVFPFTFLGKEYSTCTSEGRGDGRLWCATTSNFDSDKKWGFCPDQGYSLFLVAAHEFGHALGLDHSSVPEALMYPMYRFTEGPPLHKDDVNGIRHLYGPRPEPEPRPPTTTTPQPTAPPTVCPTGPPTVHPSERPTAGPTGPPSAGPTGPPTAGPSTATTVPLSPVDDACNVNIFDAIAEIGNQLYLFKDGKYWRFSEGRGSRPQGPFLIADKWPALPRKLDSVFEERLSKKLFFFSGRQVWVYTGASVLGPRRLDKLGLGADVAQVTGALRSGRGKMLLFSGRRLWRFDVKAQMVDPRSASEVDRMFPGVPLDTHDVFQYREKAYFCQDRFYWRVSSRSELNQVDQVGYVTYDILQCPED

Biological target: Matrix metalloproteinase-9 (Homo sapiens, UniProt P14780)
Test: Inhibition of human full length MMP9 using Mca-Pro-Leu-Gly-Leu-Dap(Dnp)-Ala-Arg-NH2 as substrate incubated for 2 hrs prior to testing measured for 15 mins by fluorometric analysis

Compound	IC50
CC(=O)Nc1ccc(Oc2ccc(S(=O)(=O)C[C@H]3CS3)cc2)cc1	0.429 µM
CC(=O)Nc1ccc(Oc2ccc(S(=O)(=O)C[C@@H]3CS3)cc2)cc1	0.677 µM
CC(=O)Nc1ccc(Oc2ccc(S(=O)(=O)CC3CS3)cc2)cc1 (racemic)	0.529 µM
